Our source for the IC50 values is ChEMBL document CHEMBL4330144, “A mitochondria-targeted organic arsenical accelerates mitochondrial metabolic disorder and function injury” (Bioorg Med Chem, 2019).

The structures appear in SMILES notation.

In test [1] the test system is NB-4. Description: Cytotoxicity against human NB4 cells after 48 hrs by MTT assay. Format: functional, cell-based.
In test [2] the test system is SGC-7901. Description: Cytotoxicity against human SGC7901 cells after 48 hrs by MTT assay. Type of test: functional, cell-based.
In test [3] the test system is HeLa. Kind of test: Cytotoxicity against human HeLa cells after 24 hrs by MTT assay. Format: functional, cell-based.
The subject of test [4] is HL-60. Kind of test: Cytotoxicity against human HL60 cells after 24 hrs by MTT assay. Format: functional, cell-based.
Test [5] relates to HL-60. Description: Cytotoxicity against human HL60 cells after 48 hrs by MTT assay. Format: functional, cell-based.
For test [6], the system named is SGC-7901. Kind of test: Cytotoxicity against human SGC7901 cells after 24 hrs by MTT assay. Format: functional, cell-based.
The subject of test [7] is HEK293. Description: Cytotoxicity against HEK293 cells after 48 hrs by MTT assay. Format: cell-based, Homo sapiens.
Test [8] relates to NB-4. Kind of test: Cytotoxicity against human NB4 cells after 24 hrs by MTT assay. Format: functional, cell-based.
Test [9] deals with HeLa. Description: Cytotoxicity against human HeLa cells after 48 hrs by MTT assay. Format: functional, cell-based.
In test [10] the test system is HEK293. Kind of test: Cytotoxicity against HEK293 cells after 24 hrs by MTT assay. Format: cell-based, Homo sapiens.
Test [11] deals with MCF7. Kind of test: Cytotoxicity against human MCF7 cells after 48 hrs by MTT assay. Format: functional, cell-based.
In test [12] the test system is MCF7. Kind of test: Cytotoxicity against human MCF7 cells after 24 hrs by MTT assay. Type of test: functional, cell-based.

As for `Nc1ccc([As]2SCCCS2)cc1`, the IC50 with NB-4 [1] worked out at 820 nM; with SGC-7901 [2], 2190 nM; in the test with HeLa [3], 2510 nM; in the test on HL-60 [4], 1120 nM; with HL-60 [5] it was 1010 nM; in the test on SGC-7901 [6], 6440 nM. Moreover, the IC50 in the test with HEK293 [7] is 2720 nM; in the test with NB-4 [8], 1250 nM; with HeLa [9], 1020 nM; with HEK293 [10], 6270 nM; in the test with MCF7 [11] it was 3360 nM; in the test with MCF7 [12] it was 9000 nM.
